The values that follow come from patent publication US12692235B2, “Fused ring compound and application thereof” (WUHAN LL SCIENCE AND TECHNOLOGY DEVELOPMENT CO., LTD., priority 2019, dated 2026).

Sequences of proteins named here, by UniProt entry; tags and fusion partners are left off. Residues count along the entry.
UniProt Q99571, 1-404 isoform 2: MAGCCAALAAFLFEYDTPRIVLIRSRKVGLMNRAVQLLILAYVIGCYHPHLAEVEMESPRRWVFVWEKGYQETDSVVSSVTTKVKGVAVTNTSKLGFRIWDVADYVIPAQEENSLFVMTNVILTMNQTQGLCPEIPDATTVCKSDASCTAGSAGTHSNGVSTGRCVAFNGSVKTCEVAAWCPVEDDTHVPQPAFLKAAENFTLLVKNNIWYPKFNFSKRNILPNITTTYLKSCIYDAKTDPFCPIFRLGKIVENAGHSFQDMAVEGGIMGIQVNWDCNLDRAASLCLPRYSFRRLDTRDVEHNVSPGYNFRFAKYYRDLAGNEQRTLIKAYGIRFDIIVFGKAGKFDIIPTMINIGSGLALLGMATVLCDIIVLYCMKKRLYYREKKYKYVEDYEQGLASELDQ

pIC50: −log10 of the molar value.

This test has as its target hP2X4 (human purinergic P2X receptor subtype 4) (Homo sapiens, UniProt Q99571). The settings on record: read-out: P2X4 IC50; HEK293 cells stably expressing hP2X4; agonist BZ-ATP 2.5 μM; FLIPR calcium.

The pIC50 is −log10 of the IC50, conventionally taken in molar units. Take `NS(=O)(=O)c1cc(NC(=O)Cc2ccccc2Cl)cc2c(C(F)(F)F)cncc12`: the pIC50 was over 8.00.
